Data: US7375136B2, “pH-dependent NMDA receptor antagonists” (Emory University, priority 2001, dated 2008)

Chains of the proteins cited; added tags and fusions are not shown. Residues count along the entry.
UniProt Q13224, 27-1484 limits assumed: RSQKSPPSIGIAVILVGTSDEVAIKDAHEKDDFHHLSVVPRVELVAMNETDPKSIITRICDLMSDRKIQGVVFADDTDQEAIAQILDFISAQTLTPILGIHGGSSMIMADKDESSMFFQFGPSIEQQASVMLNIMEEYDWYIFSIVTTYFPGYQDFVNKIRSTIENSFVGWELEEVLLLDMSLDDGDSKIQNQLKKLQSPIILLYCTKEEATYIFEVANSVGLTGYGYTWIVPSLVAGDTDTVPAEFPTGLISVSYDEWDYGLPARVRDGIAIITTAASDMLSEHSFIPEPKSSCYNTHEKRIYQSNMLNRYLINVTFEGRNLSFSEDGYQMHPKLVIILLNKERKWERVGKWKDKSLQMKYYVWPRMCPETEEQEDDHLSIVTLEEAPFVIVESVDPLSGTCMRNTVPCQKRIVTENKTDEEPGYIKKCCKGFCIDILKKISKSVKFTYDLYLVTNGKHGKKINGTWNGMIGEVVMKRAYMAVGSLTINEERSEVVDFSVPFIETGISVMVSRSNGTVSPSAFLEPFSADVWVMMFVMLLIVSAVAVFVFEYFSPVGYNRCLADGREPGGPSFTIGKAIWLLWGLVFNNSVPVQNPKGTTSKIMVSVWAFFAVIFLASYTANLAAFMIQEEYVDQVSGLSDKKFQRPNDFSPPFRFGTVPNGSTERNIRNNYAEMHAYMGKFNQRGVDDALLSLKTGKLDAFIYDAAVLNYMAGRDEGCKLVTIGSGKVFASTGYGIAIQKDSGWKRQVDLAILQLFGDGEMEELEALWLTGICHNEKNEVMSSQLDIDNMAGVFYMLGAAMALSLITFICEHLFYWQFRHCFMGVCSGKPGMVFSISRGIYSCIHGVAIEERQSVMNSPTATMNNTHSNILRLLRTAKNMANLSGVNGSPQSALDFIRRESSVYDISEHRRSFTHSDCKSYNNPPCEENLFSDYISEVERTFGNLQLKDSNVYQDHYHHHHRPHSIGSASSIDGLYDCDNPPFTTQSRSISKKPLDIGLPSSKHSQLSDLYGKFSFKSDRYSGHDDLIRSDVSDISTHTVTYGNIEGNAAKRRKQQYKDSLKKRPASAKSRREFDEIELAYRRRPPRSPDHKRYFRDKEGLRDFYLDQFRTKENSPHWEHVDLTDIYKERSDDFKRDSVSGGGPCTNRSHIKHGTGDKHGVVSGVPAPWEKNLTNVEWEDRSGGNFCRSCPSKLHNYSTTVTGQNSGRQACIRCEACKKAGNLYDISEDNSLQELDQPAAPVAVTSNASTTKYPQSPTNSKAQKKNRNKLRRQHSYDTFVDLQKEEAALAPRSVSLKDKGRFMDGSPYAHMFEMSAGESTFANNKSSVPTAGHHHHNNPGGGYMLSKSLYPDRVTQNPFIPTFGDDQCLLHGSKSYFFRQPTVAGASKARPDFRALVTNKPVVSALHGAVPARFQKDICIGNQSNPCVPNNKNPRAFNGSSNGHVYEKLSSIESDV

Target: NR1-1a/NR2B receptors (Homo sapiens, UniProt Q05586+Q13224)
Test: Two electrode voltage clamp of Xenopus oocytes expressing NR1-1a and NR2B NMDA receptor subunits; inhibition of glutamate/glycine current at pH 6.9 and 7.6
Assay type: cell-based
Conditions: for Fold increase in potency between pH 7.6 and 6.9: IC50 at pH 7.6/IC50 at pH 6.9; for IC50: read-out: IC50 at pH 6.9, pH 6.9, NR1-1a/NR2B in Xenopus oocytes
[1] = Table B, tested form: hydrochloride
[2] = Table A, tested form: hydrochloride monohydrate

For `CS(=O)(=O)Nc1ccc(OCC(O)CNCCc2ccc(Cl)cc2Cl)cc1` (stereo not drawn), the “Fold increase in potency between pH 7.6 and 6.9” value (“Fold increase” for short) (Table A) was 11.8 and the IC50 (Table A) was 1360 nM.

`CS(=O)(=O)Nc1ccc(OC[C@H](O)CNCCc2ccc(Cl)c(Cl)c2)cc1` was tested, and the “Fold increase” value [1] was 3.26 and the IC50 [1] was 99 nM.

`CN(CCc1ccc(Cl)c(Cl)c1)C[C@@H](O)COc1ccc(NS(C)(=O)=O)cc1` was tested, and the “Fold increase” value [2] was 11.3 and the IC50 [2] was 85 nM.

Where two headings read alike, the source gives them in different places.
